IC50 data for one compound are collected here from patent US6060451A, “Thrombin inhibitors based on the amino acid sequence of hirudin” (The National Research Council of Canada, priority 1995, dated 2000).

Molecules are shown by their SMILES.

The experiment addresses bovine α-thrombin (Bos taurus, UniProt P00735). To be noted: read-out: IC50 fibrinogen clotting / fibrin clot formation.

On to `CC[C@H](C)[C@H](NC(=O)[C@H](CCC(=O)O)NC(=O)[C@H](CCC(=O)O)NC(=O)[C@H](Cc1ccccc1)NC(=O)[C@H](CC(=O)O)NC(=O)CNC(=O)[C@H](CC(=O)O)NC(=O)[C@H](CC(N)=O)NC(=O)[C@H](Cc1c[nH]cn1)NC(=O)[C@H](CO)NC(=O)[C@H](CCC(N)=O)NC(=O)[C@@H]1CCCN1C(=O)[C@H](CCCCN)NC(=O)[C@@H]1CCCN1C(=O)[C@@H](NC(C)=O)[C@@H](C)O)C(=O)N1CCC[C@H]1C(=O)N[C@@H](CCC(=O)O)C(=O)N[C@@H](CCC(=O)O)C(=O)N[C@@H](Cc1ccc(O)cc1)C(=O)N[C@@H](CC(C)C)C(=O)N[C@@H](CCC(N)=O)C(=O)O` [native desulfo hirudin^45-65], for which the IC50 is 940 ± 200 nM.
